Amino acid sequences for entries named in this document (tags omitted). A change or cut given only in a name is not applied to a line headed by its entry.
UniProt Q99572: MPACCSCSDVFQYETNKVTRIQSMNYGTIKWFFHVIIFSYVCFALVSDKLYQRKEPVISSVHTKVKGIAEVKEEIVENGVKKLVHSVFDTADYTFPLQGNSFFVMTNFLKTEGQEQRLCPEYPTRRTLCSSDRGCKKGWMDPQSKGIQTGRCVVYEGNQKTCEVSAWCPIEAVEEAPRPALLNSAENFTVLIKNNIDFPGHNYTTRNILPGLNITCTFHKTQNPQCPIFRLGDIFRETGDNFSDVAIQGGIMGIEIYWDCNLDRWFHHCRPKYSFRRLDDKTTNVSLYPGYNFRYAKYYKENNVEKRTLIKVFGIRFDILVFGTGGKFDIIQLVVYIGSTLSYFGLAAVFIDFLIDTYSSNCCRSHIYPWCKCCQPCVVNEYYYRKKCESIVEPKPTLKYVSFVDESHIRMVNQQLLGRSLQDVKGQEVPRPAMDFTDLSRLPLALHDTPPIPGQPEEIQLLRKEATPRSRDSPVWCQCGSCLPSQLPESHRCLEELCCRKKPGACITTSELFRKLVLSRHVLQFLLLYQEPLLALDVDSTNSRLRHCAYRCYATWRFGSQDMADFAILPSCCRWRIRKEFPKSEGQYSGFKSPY

According to ChEMBL document CHEMBL4011591, “Discovery and pharmacological evaluation of a novel series of adamantyl cyanoguanidines as P2X7 receptor antagonists” (Eur J Med Chem, 2017):

Tests used:
P2X purinoceptor 7 [1] = molecular target: T1, P2X purinoceptor 7 (Homo sapiens, UniProt Q99572); test: Antagonist activity at P2X7 receptor in human THP1 cells assessed as inhibition of BzATP-induced YO-PRO-1 Iodide uptake measured every 30 secs for 1 hr by fluorescence assay; type: cell-based
P2X purinoceptor 7 [2] = molecular target: T1, P2X purinoceptor 7; test: Antagonist activity at P2X7 receptor in LPS-stimulated human THP1 cells assessed as inhibition of LPS/BzATP-induced IL-1beta release preincubated for 30 mins followed by BzATP addition measured after 30 mins by ELISA
P2X purinoceptor 7 [3] = molecular target: T1, P2X purinoceptor 7; test: Antagonist activity at human P2X7 receptor expressed in 1321N1 cells assessed as inhibition of agonist-induced calcium flux pretreated for 3 mins followed by BzATP addition after 3 mins measured every 1 sec for 60 secs and at 5 secs interval throughout testing by Flou-4-AM dye based FLIPR assay; type: cell-based
P2X purinoceptor 7 [4] = molecular target: T2, P2X purinoceptor 7 (Mus musculus, UniProt Q9Z1M0); test: Antagonist activity at mouse P2X7 receptor expressed in 1321N1 cells assessed as inhibition of agonist-induced calcium flux pretreated for 3 mins followed by BzATP addition after 3 mins measured every 1 sec for 60 secs and at 5 secs interval throughout testing by Flou-4-AM dye based FLIPR assay; type: cell-based
T2 sequence (Q9Z1M0 whole entry): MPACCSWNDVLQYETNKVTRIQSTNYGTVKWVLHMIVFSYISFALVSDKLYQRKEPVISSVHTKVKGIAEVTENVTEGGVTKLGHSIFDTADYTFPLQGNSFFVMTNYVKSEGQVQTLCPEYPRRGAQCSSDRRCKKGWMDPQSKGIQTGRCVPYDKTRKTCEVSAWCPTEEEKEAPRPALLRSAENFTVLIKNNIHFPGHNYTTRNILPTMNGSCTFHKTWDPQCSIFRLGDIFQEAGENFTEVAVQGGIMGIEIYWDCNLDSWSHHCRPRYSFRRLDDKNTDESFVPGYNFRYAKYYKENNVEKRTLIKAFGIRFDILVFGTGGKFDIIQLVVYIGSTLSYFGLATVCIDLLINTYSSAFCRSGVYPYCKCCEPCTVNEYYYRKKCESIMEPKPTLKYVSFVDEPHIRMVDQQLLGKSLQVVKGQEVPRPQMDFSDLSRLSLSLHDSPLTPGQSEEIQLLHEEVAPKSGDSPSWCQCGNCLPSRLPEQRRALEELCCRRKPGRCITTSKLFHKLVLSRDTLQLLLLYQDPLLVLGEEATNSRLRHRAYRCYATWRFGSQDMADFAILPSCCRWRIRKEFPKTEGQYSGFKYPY

`C[C@H](N/C(=N/C#N)Nc1cccc2ncccc12)c1ccccc1` showed an IC50 (P2X purinoceptor 7 [1]) of 93 nM, an IC50 (P2X purinoceptor 7 [2]) of 9 nM and an IC50 (P2X purinoceptor 7 [3]) of 9 to 11 nM. The IC50 (P2X purinoceptor 7 [4]) was 9 to 11 nM.
